Reference: patent US20210236668A1, “COMPOSITIONS FOR RADIOTHERAPY AND USES THEREOF” (The Trustees of Columbia University in the City of New York, priority 2018, published 2021)

System: NCI-28H cells
Settings: 72 hrs

SMILES: CO[C@@]12[C@H](COC(N)=O)C3=C(C(=O)C(C)=C(N)C3=O)N1C[C@@H]1N[C@@H]12 [mitomycin, Mitomycin]
- cytotoxicity to NCI-28H cells, comparison: clear cytotoxic effect
